Earlier results in patent US10650914B2, “Fresh water acute criteria prediction method based on quantitative structure-activity relationship for metals” (Chinese Research Academy of Environmental Sciences, priority 2015, dated 2020).

Columns and labels:
[1] = system: Daphnia magna
[2] = system: Carp; details: training set
[3] = system: aquatic organisms; details: U.S. EPA guideline 1985, laboratory determination

In the case of Mercury, the “Endpoint Index” value ([1]; fatality rate, 48 hours, 13° C., pH 7.6, total hardness 240 mg/L) is given as 0.022, the “Endpoint” value ([1]; fatality rate, 48 hours, endpoint index divided by molecular weight) is given as -0.9608 µmol/L and the “Observed value (log-EC50)” value ([1]; training set of leave-one-out internal validation) is given as −0.9608. The “Observed value (log-LC50)” value [2] was −0.0479 and the hazard concentration [3] was −1.8560.
